The record followed here is PMC7145534, “Are the intrinsically disordered linkers involved in SSB binding to accessory proteins?” (Nucleic Acids Research, 2019).

The test deals with T1, Escherichia coli single stranded DNA binding protein (SSB), wild-type tetramer (E. coli), P0AGE0.
T1 chain: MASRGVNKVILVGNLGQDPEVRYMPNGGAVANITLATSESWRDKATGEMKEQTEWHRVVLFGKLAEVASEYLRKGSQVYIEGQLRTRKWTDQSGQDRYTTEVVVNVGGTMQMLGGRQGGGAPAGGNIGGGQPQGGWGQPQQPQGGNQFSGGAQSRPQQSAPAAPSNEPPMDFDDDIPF
The experiment in a line: AUC; sedimentation velocity, 42 000 rpm, 25°C; SSB construct 0.35 μM tetramer alone and with 3.5 μM RecO (2.5 molar excess per C-terminus); buffer BTP pH 7.0, 200 mM NaCl. To be noted: remark: other sources report otherwise.

B1: Escherichia coli single stranded DNA binding protein (SSB), wild-type tetramer, P0AGE0 1-178 (natural protein)
chain: MASRGVNKVILVGNLGQDPEVRYMPNGGAVANITLATSESWRDKATGEMKEQTEWHRVVLFGKLAEVASEYLRKGSQVYIEGQLRTRKWTDQSGQDRYTTEVVVNVGGTMQMLGGRQGGGAPAGGNIGGGQPQGGWGQPQQPQGGNQFSGGAQSRPQQSAPAAPSNEPPMDFDDDIPF
As usually defined, the stoichiometry N is the number of molecules, sites or subunits per partner or assembly. The molecule B1 showed a stoichiometry N of 4.
